Test results reported in publication PMC6499816, “Molecular determinants regulating selective binding of autophagy adapters and receptors to ATG8 proteins” (Nature Communications, 2019).

Chains of the proteins cited; added tags and fusions are not shown. Lines headed by an entry give the natural chain unless they say otherwise; changes in a name come on top.
UniProt Q9BXW4: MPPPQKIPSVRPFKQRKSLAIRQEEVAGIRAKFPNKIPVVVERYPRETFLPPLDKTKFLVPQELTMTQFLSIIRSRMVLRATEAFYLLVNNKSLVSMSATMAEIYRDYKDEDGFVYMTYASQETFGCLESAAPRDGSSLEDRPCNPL
UniProt P60520, whole entry: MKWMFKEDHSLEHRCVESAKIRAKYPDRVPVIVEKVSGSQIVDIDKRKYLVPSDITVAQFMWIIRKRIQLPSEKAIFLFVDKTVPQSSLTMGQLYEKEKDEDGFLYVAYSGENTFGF
UniProt Q9H0R8, whole entry: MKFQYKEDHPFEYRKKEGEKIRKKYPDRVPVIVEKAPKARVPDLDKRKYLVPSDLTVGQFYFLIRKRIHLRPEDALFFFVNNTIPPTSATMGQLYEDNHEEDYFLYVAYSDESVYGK

What was measured:
LC3A = biological target: T1, LC3A (Homo sapiens, UniProt Q9H492); assay: Bio-layer interferometry (BLI), LIR peptide binding to LC3A; settings: n=2 independent experiments; for Rmax (best-fit value, theoretical response maximum): non linear regression Y=Rmax*X/(Kd+X), LC3A
T1 construct: GST (followed by 3C protease site) (N); made in house; host or cells: bacteria (E. coli BL21 (DE3) pLysS is stated for the GST-ATG8 proteins of the overlay assay)
Experimental: (§1) For recombinant protein expression in bacteria, a modified plasmid of pGEX-6P2 (GE Healthcare) (referred to as pAL) containing an N-terminal […] followed by a 3C protease cleavage site was used.
(§2) Expression was induced by the addition of 0.5 mM IPTG at OD600 = 0.6 and cells were incubated at 25 °C overnight or at 37 °C for 5 h. Harvested cells were lysed in 50 mM Tris-HCl, pH 8.0, 500 mM NaCl, 0.1% Triton X-100, 0.4 mM 4-(2-aminoethyl)-benzenesulfonylfluoride HCl (AEBSF), and 15 µg/ml benzamidine. Fusion protein was batch adsorbed onto Glutathione-Sepharose 4B beads (GE Healthcare). After five washes with wash buffer (50 mM Tris, pH 8.0, 250 mM NaCl, 0.4 mM AEBSF, and 15 µg/ml benzamidine), fusion proteins were eluted in 50 mM Tris, pH 8.0, 2 mM L-glutathione reduced, 0.4 mM AEBSF, and 15 µg/ml benzamidine.
(§3) The biosensor tip surface immobilized with a ligand is incubated with an analyte in solution, resulting in an increase in optical thickness at the biosensor tip and a wavelength shift, which is a direct measure of the change in thickness. […] Ligand-loaded SA biosensors were then incubated with different concentrations of ATG8. All binding experiments were performed in solid-black 96-well plates containing 200 μl of solution (25 mM Tris, pH 7.5, 150 mM NaCl, 0.5 mM TCEP, 0.1% Tween-20, 1 mg/ml bovine serum albumin (BSA)) in each well at 25 °C with an agitation speed of 1000 rpm. Each measurement was repeated two to five times.
(§4) Peptides were synthesized using FMOC (fluorenylmethoxycarbonyl) solid-phase peptide chemistry by the Francis Crick Peptide Chemistry Technology Platform and are listed in Supplementary Table 2.

LC3B = biological target: T2, LC3B (Homo sapiens, UniProt Q9GZQ8); assay: BLI, LIR peptide binding to LC3B; settings: n=2 independent experiments; for Rmax (best-fit value, theoretical response maximum): non linear regression Y=Rmax*X/(Kd+X), LC3B
T2 construct: GST (followed by 3C protease site) (N); made in house; host or cells: bacteria (E. coli BL21 (DE3) pLysS is stated for the GST-ATG8 proteins of the overlay assay)
Experimental: as §1, §2, §3, §4

LC3C = biological target: T3, LC3C (Homo sapiens, UniProt Q9BXW4); assay: BLI, LIR peptide binding to LC3C; settings: n=2 independent experiments; for Rmax (best-fit value, theoretical response maximum): non linear regression Y=Rmax*X/(Kd+X), LC3C
T3 construct: GST (followed by 3C protease site) (N); made in house; host or cells: bacteria (E. coli BL21 (DE3) pLysS is stated for the GST-ATG8 proteins of the overlay assay)
Experimental: as §1, §2, §3, §4

GABARAPL2 = biological target: T4, GABARAPL2 (Homo sapiens, UniProt P60520); assay: BLI, LIR peptide binding to GABARAPL2; settings: for Rmax (best-fit value, theoretical response maximum): non linear regression Y=Rmax*X/(Kd+X), GABARAPL2, n=2 independent experiments
T4 construct: GST (followed by 3C protease site) (N); made in house; host or cells: bacteria (E. coli BL21 (DE3) pLysS is stated for the GST-ATG8 proteins of the overlay assay)
Experimental: as §1, §2, §3, §4

GABARAP K24Q = biological target: T5, GABARAP K24Q (Homo sapiens, UniProt O95166, K24Q); assay: BLI, LIR peptide binding to GABARAP K24Q; settings: best-fit value of BLI response; FIP200 WT LIR peptide; n=4
T5 construct: GST (followed by 3C protease site) (N); made in house
Experimental: as §1, §3, §4

GABARAP Y25H = biological target: T6, GABARAP Y25H (Homo sapiens, UniProt O95166, Y25H); assay: BLI, LIR peptide binding to GABARAP Y25H; settings: best-fit value of BLI response; FIP200 WT LIR peptide; n=4
T6 construct: GST (followed by 3C protease site) (N); made in house
Experimental: as §1, §3, §4

GABARAP R28K = biological target: T7, GABARAP R28K (Homo sapiens, UniProt O95166, R28K); assay: BLI, LIR peptide binding to GABARAP R28K; settings: best-fit value of BLI response; FIP200 WT LIR peptide; n=4
T7 construct: GST (followed by 3C protease site) (N); made in house
Experimental: as §1, §3, §4

GABARAP K24Q/Y25H/R28K = biological target: T8, GABARAP K24Q/Y25H/R28K (Homo sapiens, UniProt O95166, K24Q/R28K/Y25H); assay: BLI, LIR peptide binding to GABARAP K24Q/Y25H/R28K; settings: best-fit value of BLI response; FIP200 WT LIR peptide; n=4
T8 construct: GST (followed by 3C protease site) (N); made in house
Experimental: as §1, §3, §4

[1] = biological target: T9, GABARAP K24Q/Y25H/Q59E/F60L (Homo sapiens, UniProt O95166, F60L/K24Q/Q59E/Y25H); assay: BLI, LIR peptide binding to GABARAP K24Q/Y25H/Q59E/F60L; settings: best-fit value of BLI response; FIP200 WT LIR peptide; n=2
T9 construct: GST (followed by 3C protease site) (N); made in house
Experimental: as §1, §3, §4

GABARAP L55V = biological target: T10, GABARAP L55V (Homo sapiens, UniProt O95166, L55V); assay: BLI, LIR peptide binding to GABARAP L55V; settings: best-fit value of BLI response; FIP200 WT LIR peptide; n=4
T10 construct: GST (followed by 3C protease site) (N); made in house
Experimental: as §1, §3, §4

GABARAP F62K = biological target: T11, GABARAP F62K (Homo sapiens, UniProt O95166, F62K); assay: BLI, LIR peptide binding to GABARAP F62K; settings: best-fit value of BLI response; FIP200 WT LIR peptide; n=4
T11 construct: GST (followed by 3C protease site) (N); made in house
Experimental: as §1, §3, §4

GABARAP L63I = biological target: T12, GABARAP L63I (Homo sapiens, UniProt O95166, L63I); assay: BLI, LIR peptide binding to GABARAP L63I; settings: best-fit value of BLI response; FIP200 WT LIR peptide; n=4
T12 construct: GST (followed by 3C protease site) (N); made in house
Experimental: as §1, §3, §4

LC3B Q26K = biological target: T13, LC3B Q26K (Homo sapiens, UniProt Q9GZQ8, Q26K); assay: BLI, LIR peptide binding to LC3B Q26K; settings: best-fit value of BLI response; FIP200 WT LIR peptide; n=2
T13 construct: GST (followed by 3C protease site) (N); made in house
Experimental: as §1, §3, §4

LC3B H27Y = biological target: T14, LC3B H27Y (Homo sapiens, UniProt Q9GZQ8, H27Y); assay: BLI, LIR peptide binding to LC3B H27Y; settings: best-fit value of BLI response; FIP200 WT LIR peptide; n=2
T14 construct: GST (followed by 3C protease site) (N); made in house
Experimental: as §1, §3, §4

LC3B K30R = biological target: T15, LC3B K30R (Homo sapiens, UniProt Q9GZQ8, K30R); assay: BLI, LIR peptide binding to LC3B K30R; settings: best-fit value of BLI response; FIP200 WT LIR peptide; n=2
T15 construct: GST (followed by 3C protease site) (N); made in house
Experimental: as §1, §3, §4

LC3B Q26K/H27Y/K30R = biological target: T16, LC3B Q26K/H27Y/K30R (Homo sapiens, UniProt Q9GZQ8, H27Y/K30R/Q26K); assay: BLI, LIR peptide binding to LC3B Q26K/H27Y/K30R; settings: best-fit value of BLI response; FIP200 WT LIR peptide; n=2
T16 construct: GST (followed by 3C protease site) (N); made in house
Experimental: as §1, §3, §4

LC3B E62Q = biological target: T17, LC3B E62Q (Homo sapiens, UniProt Q9GZQ8, E62Q); assay: BLI, LIR peptide binding to LC3B E62Q; settings: best-fit value of BLI response; FIP200 WT LIR peptide; n=2
T17 construct: GST (followed by 3C protease site) (N); made in house
Experimental: as §1, §3, §4

LC3B Q26K/H27Y/E62Q = biological target: T18, LC3B Q26K/H27Y/E62Q (Homo sapiens, UniProt Q9GZQ8, E62Q/H27Y/Q26K); assay: BLI, LIR peptide binding to LC3B Q26K/H27Y/E62Q; settings: best-fit value of BLI response; FIP200 WT LIR peptide; n=2
T18 construct: GST (followed by 3C protease site) (N); made in house
Experimental: as §1, §3, §4

GABARAP = biological target: T19, GABARAP (Homo sapiens, UniProt O95166); assay: BLI, LIR peptide binding to GABARAP; settings: non linear regression Y=Rmax*X/(Kd+X), GABARAP, n=2 independent experiments
T19 construct: GST (followed by 3C protease site) (N); made in house; host or cells: bacteria (E. coli BL21 (DE3) pLysS is stated for the GST-ATG8 proteins of the overlay assay)
Experimental: as §1, §2, §3, §4

GABARAPL1 = biological target: T20, GABARAPL1 (Homo sapiens, UniProt Q9H0R8); assay: BLI, LIR peptide binding to GABARAPL1; settings: non linear regression Y=Rmax*X/(Kd+X), GABARAPL1, n=2 independent experiments
T20 construct: GST (followed by 3C protease site) (N); made in house; host or cells: bacteria (E. coli BL21 (DE3) pLysS is stated for the GST-ATG8 proteins of the overlay assay)
Experimental: as §1, §2, §3, §4

## CC[C@H](C)[C@H](NC(=O)[C@@H](NC(=O)[C@H](CCC(N)=O)NC(=O)[C@H](CCC(=O)O)NC(=O)[C@@H](NC(=O)[C@H](CC(N)=O)NC(=O)[C@@H]1CCCN1C(=O)[C@H](Cc1c[nH]cn1)NC(=O)[C@@H]1CCCN1C(=O)[C@@H](NC(=O)[C@@H](NC(=O)[C@H](CCC(=O)O)NC(=O)[C@H](Cc1ccccc1)NC(=O)[C@H](CC(=O)O)NC(=O)[C@H](Cc1ccccc1)NC(=O)[C@@H](NC(=O)[C@H](Cc1c[nH]cn1)NC(=O)[C@H](C)NC(=O)[C@H](CC(=O)O)NC(=O)[C@@H](NC(=O)[C@@H](N)CO)[C@@H](C)CC)[C@@H](C)O)[C@@H](C)O)[C@@H](C)CC)[C@@H](C)CC)[C@@H](C)O)C(=O)O [FIP200 WT]
LC3A
  Rmax (best-fit value, theoretical response maximum): 2.436
LC3A; non linear regression
  Rmax (best-fit value, theoretical response maxium): 2.436
LC3B
  Rmax (best-fit value, theoretical response maximum): 1.272
LC3B; non linear regression
  Rmax (best-fit value, theoretical response maxium): 1.272
LC3C
  Rmax (best-fit value, theoretical response maximum): 1.718
LC3C; non linear regression
  Rmax (best-fit value, theoretical response maxium): 1.718
GABARAPL2
  Rmax (best-fit value, theoretical response maximum): 1.304
GABARAPL2; non linear regression, n=2 independent experiments
  Rmax (best-fit value, theoretical response maxium): 1.304
GABARAP K24Q
  Rmax: 1.602
GABARAP Y25H
  Rmax: 1.522
GABARAP R28K
  Rmax: 1.69
GABARAP K24Q/Y25H/R28K
  Rmax: 1.731
[1]
  Rmax: 1.278
GABARAP L55V
  Rmax: 1.639
GABARAP F62K
  Rmax: 1.981
GABARAP L63I
  Rmax: 2.187
LC3B Q26K
  Rmax: 2.107
LC3B H27Y
  Rmax: 1.594
LC3B K30R
  Rmax: 1.644
LC3B Q26K/H27Y/K30R
  Rmax: 2.304
LC3B E62Q
  Rmax: 1.976
LC3B Q26K/H27Y/E62Q
  Rmax: 2.379

## CC[C@H](C)[C@H](NC(=O)[C@@H](NC(=O)[C@H](CCC(N)=O)NC(=O)[C@H](CCC(=O)O)NC(=O)[C@@H](NC(=O)[C@H](CC(N)=O)NC(=O)[C@@H]1CCCN1C(=O)[C@H](Cc1c[nH]cn1)NC(=O)[C@@H]1CCCN1C(=O)[C@@H](NC(=O)[C@@H](NC(=O)[C@H](CCC(=O)O)NC(=O)[C@H](Cc1ccccc1)NC(=O)[C@H](CC(=O)O)NC(=O)[C@H](Cc1ccccc1)NC(=O)[C@@H](NC(=O)[C@H](Cc1c[nH]cn1)NC(=O)[C@H](C)NC(=O)[C@H](CC(=O)O)NC(=O)[C@@H](NC(=O)[C@@H](N)CO)[C@@H](C)CC)[C@@H](C)O)[C@@H](C)CC)[C@@H](C)CC)[C@@H](C)CC)[C@@H](C)O)C(=O)O [FIP200 T704I]
LC3A
  Rmax (best-fit value, theoretical response maximum): 2.13
LC3B
  Rmax (best-fit value, theoretical response maximum): 1.508
LC3C
  Rmax (best-fit value, theoretical response maximum): 2.683
GABARAP
  Rmax (best-fit value, theoretical response maximum): 2.827
GABARAPL1
  Rmax (best-fit value, theoretical response maximum): 2.798
GABARAPL2
  Rmax (best-fit value, theoretical response maximum): 2.437
